This note sets out measurements from article PMC3560935 (Anesthesiology, 2011).

Amino acid sequences for entries named in this document (tags omitted). A change or cut given only in a name is not applied to a line headed by its entry.
UniProt P35372, whole entry: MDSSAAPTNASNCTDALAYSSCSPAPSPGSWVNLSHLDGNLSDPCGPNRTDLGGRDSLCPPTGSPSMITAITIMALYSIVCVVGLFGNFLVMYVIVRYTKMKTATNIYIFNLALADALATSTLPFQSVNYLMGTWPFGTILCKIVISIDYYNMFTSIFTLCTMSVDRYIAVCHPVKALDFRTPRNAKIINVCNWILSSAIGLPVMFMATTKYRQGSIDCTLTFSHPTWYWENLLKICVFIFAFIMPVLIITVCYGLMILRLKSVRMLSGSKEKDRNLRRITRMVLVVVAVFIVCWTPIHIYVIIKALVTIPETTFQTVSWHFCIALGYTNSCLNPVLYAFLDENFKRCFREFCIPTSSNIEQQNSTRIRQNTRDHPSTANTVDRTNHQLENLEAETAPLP
UniProt P41145: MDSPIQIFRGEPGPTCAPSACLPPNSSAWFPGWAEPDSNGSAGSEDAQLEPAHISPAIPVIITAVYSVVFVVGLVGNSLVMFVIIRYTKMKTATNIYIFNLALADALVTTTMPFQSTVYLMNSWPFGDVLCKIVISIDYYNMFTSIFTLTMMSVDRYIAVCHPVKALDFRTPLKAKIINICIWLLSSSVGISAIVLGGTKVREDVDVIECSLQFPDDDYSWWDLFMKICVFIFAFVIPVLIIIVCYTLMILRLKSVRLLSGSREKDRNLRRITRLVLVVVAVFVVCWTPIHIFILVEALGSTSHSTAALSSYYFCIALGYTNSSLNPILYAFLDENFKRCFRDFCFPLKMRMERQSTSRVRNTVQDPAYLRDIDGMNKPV

SMILES strings stand for the structures.

In one assay the target is human mu opioid receptor (Homo sapiens, UniProt P35372).
Assay [1] deals with human kappa opioid receptor (Homo sapiens, UniProt P41145).

As to `CO[C@]12CC[C@@]3(C[C@@H]1[C@](C)(O)C(C)(C)C)[C@H]1Cc4ccc(O[C@@H]5O[C@H](C(=O)O)[C@@H](O)[C@H](O)[C@H]5O)c5c4[C@@]3(CCN1CC1CC1)[C@H]2O5` [Buprenorphine-3-glucuronide, buprenorphine-3-glucuronide], the “inhibition of 3H-diprenorphine mu receptor binding (in words)” value at human mu opioid receptor was “high affinity, with a Ki in the picomolar range”. Moreover, at human mu opioid receptor (read-out: apparent Ki, Mu), the Ki was determined as 4.9 ± 2.7 pM. In addition, the “apparent Ki, Kappa” value in assay [1] is on record as “N.B”.
